Paper PMC5923123, “In Vitro and In Vivo Efficacy of a Novel and Long-Acting Fungicidal Azole, PC1244, on Aspergillus fumigatus Infection” (Antimicrobial Agents and Chemotherapy, 2018)

Amino acid sequences for entries named in this document (tags omitted). A change or cut given only in a name is not applied to a line headed by its entry.
UniProt Q4WNT5: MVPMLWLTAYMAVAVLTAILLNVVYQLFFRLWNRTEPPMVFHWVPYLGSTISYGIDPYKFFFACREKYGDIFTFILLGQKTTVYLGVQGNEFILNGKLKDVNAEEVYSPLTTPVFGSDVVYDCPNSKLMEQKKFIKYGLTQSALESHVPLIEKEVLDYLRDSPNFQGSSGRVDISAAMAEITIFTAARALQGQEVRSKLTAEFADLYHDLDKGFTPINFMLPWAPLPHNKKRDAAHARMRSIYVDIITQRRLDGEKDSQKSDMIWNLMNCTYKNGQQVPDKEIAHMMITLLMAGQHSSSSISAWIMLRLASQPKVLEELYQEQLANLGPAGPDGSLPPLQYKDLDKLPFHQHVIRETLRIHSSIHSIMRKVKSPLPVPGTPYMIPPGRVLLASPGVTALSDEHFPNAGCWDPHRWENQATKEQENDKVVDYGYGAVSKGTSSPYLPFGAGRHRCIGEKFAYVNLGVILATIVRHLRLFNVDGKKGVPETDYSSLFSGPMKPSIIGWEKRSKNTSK

Biological target: recombinant A. fumigatus (AF293) CYP51A (Aspergillus fumigatus, UniProt Q4WNT5)
Test: CYP51 binding assay (type II difference spectra, Morrison equation)

In the case of Cc1cc(N2CCN(c3ccc(C(=O)N[C@H]4CCCC[C@@H]4O)cc3)CC2)ccc1OC[C@@H]1CO[C@@](Cn2cncn2)(c2ccc(F)cc2F)C1 [PC1244, 4-(4-(4-(((3R,5R)-5-((1H-1,2,4-triazol-1-yl)methyl)-5-(2,4-difluorophenyl)tetrahydrofuran-3-yl)methoxy)-3-methylphenyl)piperazin-1-yl)-N-((1S,2S)-2-hydroxycyclohexyl)benzamide], the Kd is reported as 740 nM.
